Measured values as given in ChEMBL document CHEMBL5230101, “Unique Domain for a Unique Target: Selective Inhibitors of Host Cell DDX3X to Fight Emerging Viruses” (J Med Chem, 2020).

What was measured:
Homo sapiens [1] = species on record: Homo sapiens; assay: Selectivity ratio of ID50 for human DDX1 helicase activity to ID50 for human recombinant full length DDX3X helicase activity
Homo sapiens [2] = species on record: Homo sapiens; assay: Selectivity ratio of ID50 for human recombinant full length DDX3X R262A mutant helicase activity to ID50 for human recombinant full length DDX3X helicase activity
Homo sapiens [3] = species on record: Homo sapiens; assay: Selectivity ratio of ID50 for human recombinant full length DDX3X E256A mutant helicase activity to ID50 for human recombinant full length DDX3X helicase activity
[4] = Selectivity ratio of ID50 for Hepatitis C virus NSP 3 helicase activity to ID50 for human recombinant full length DDX3X helicase activity
[5] = Selectivity ratio of ID50 for Arabidopsis thaliana STRS2 helicase activity to ID50 for human recombinant full length DDX3X helicase activity

Compound	Ratio (Homo sapiens [1])	Ratio (Homo sapiens [2])	Ratio (Homo sapiens [3])	Ratio [4]	Ratio [5]
NC[C@@H](O)CN(c1ccccc1)c1ccccc1	8280	0.6	43	> 10000	> 10000
NCC(O)CN(c1ccccc1)c1ccccc1 (racemic)	9000	0.5	36500	> 50000	> 50000
